Patent EP4840855A1, “SULFONAMIDE DERIVATIVE, PREPARATION METHOD THEREFOR AND USE THEREOF” (dated 2026)

Amino acid sequences for entries named in this document (tags omitted).
UniProt P17812, whole entry: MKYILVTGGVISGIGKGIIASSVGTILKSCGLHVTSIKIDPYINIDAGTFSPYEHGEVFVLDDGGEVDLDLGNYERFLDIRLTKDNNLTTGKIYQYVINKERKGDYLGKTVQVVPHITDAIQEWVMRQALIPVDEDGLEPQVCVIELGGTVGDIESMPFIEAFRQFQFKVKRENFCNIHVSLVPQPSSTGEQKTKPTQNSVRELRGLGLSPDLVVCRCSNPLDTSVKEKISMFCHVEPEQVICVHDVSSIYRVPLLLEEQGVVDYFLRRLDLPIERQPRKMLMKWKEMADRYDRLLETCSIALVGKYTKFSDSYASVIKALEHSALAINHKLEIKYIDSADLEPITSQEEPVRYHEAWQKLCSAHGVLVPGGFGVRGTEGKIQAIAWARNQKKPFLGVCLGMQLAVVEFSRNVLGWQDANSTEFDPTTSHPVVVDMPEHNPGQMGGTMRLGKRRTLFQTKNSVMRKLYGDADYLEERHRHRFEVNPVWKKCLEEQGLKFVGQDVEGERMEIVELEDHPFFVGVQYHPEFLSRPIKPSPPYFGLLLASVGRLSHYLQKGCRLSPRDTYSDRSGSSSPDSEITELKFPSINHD

Assays:
[1] = Pharmacokinetic testing in mice (plasma concentration by LC-MS/MS); conditions: ICR mice, male, Oral (10 mg/kg), fasted overnight
Experimental: ICR mice were used as test animals. Plasma concentrations of the test compounds at different time points were measured by LC/MS/MS after intragastrical administration of the reference compound STP-B and the compounds of the present disclosure, and the pharmacokinetic characteristics of the compounds of the present disclosure in mice were studied.
ICR mice, male, 30.8 to 38.0 g, purchased from Vital River Laboratory Animal Technology Co., Ltd.
An appropriate amount of the test compound was weighed, and an appropriate amount of DMA (N,N-dimethylacetamide), 30% Solutol HS15 (30% polyethylene glycol-15 hydroxystearate), and saline were added sequentially, mixed by ultrasonication and vortexing to prepare a 1 mg/mL dosing formulation. The ratio of DMA:30% Solutol HS15:saline was 10:10:80 (v/v/v).
ICR mice in each test compound injection group (9 mice per group) were fasted overnight and then administered intragastrically (PO, compound dose was 10 mg/kg, dosing volume was 10 mL/kg), and fed 4 hours after dosing.
About 0.1 mL of blood was collected from the orbit before dosing and at 0.25 h, 0.5 h, 1 h, 2 h, 4 h, 8 h, 10 h, and 24 h after dosing, and whole blood samples were placed in anticoagulant tubes containing EDTA-K2. After blood sample collection, samples were placed on ice and centrifuged to separate plasma (centrifugation conditions: 1500 g, 10 minutes). The collected plasma was stored at -40 to -20°C before analysis.
The content of test compounds in mouse plasma after intragastrical administration was determined by LC-MS/MS.

[2] = biological target: human cytidine triphosphate synthase 1 (hCTPS1) (Homo sapiens, UniProt P17812); experiment: Inhibition on hCTPS1 enzyme activity (ADP-Glo Kinase Assay); conditions: 40 nM hCTPS1, 120 µM ATP, 160 µM UTP, 60 µM GTP, 100 µM L-Glutamine, 120 minutes
Experimental: The following method was used to determine the degree of inhibition on human cytidine triphosphate synthase 1 (hCTPS1) enzyme activity by the compounds of the present disclosure in vitro. ADP-Glo™ Kinase Assay kit (catalog number V9102) from Promega was used in this method. The kit's manual may be referred for a detailed experimental procedure.
The experimental procedure was briefly described as follows: The reaction was performed in a buffer containing 50 mM 4-hydroxyethylpiperazineethanesulfonic acid (HEPES), 10 mM magnesium chloride, 5 mM potassium chloride, 0.01% Pluronic F127, and 4 mM dithiothreitol in a 384-well plate. First, 100 nL of gradient-diluted compound was transferred to the 384-well plate via a nanoliter acoustic liquid transfer system (manufacturer: Labcyte; catalog number: Echo 655), and 2.5 µL of buffer containing hCTPS1 was added, followed by incubation in a 25°C incubator for 10 minutes. Then 2.5 µL of buffer containing ATP and UTP was added, followed by incubation in a 25°C incubator for 10 minutes. Finally, 5 µL of buffer containing GTP and L-glutamine (L-Gln) was added to initiate the reaction. The final reaction system was: 40 nM hCTPS1, 120 µM ATP, 160 µM UTP, 60 µM GTP, 100 µM L-Glutamine, 1% DMSO, with a total assay volume of 10 µL. The reaction was performed for 120 minutes, then 10 µL of ADP-Glo Reagent was added, followed by incubation for 1 hour. Then 20 µL of Kinase Detection Reagent was added, and after 1 hour, the chemiluminescence value was recorded on a Microbeta microplate reader (manufacturer: PerkinElmer; catalog number: Envision). The percentage inhibition rates of the compounds at each concentration were calculated by comparing the chemiluminescence intensity ratio with a control group (0.1% DMSO). The IC50 value of the compounds were obtained by nonlinear regression analysis of compound concentration logarithm-inhibition rate using GraphPad Prism 5 software, as shown in Table 2. Table 2 IC50 data for inhibition on hCTPS1 enzyme activity by the compounds of the present disclosure

[3] = tested on: BxPC-3 cells (human primary pancreatic cancer cells); experiment: Inhibition on BxPC-3 cell proliferation (CellTiter-Glo cell viability); conditions: 120 hours culture
Experimental: The following method was used to determine the effect of the compounds of the present disclosure on the proliferation of BxPC-3 cells (human primary pancreatic cancer cells). BxPC-3 cells were purchased from the Cell Resource Center of Shanghai Institutes for Biological Sciences, Chinese Academy of Sciences, and were cultured in DMEM medium containing 10% fetal bovine serum, 100 U penicillin, and 100 µg/mL streptomycin. Cell viability was determined using CellTiter-Glo® Luminescent Cell Viability Assay kit (Promega, catalog number G7573).
The experimental method was performed according to the steps in the kit's manual, briefly described as follows: The test compound was first dissolved in DMSO to prepare a 10 mM stock solution, then diluted with medium to prepare test samples, with a final concentration range of the compound from 10000 nM to 1.52 nM. Cells in logarithmic growth phase were seeded into a 96-well cell culture plate at a density of 1000 cells per well, then the test compounds were added, and the cells were cultured in a 37°C CO2 incubator for 120 hours. After culture was completed, 50 µL of CellTiter-Glo detection reagent was added to each well, the plate was shaken for 5 minutes, then allowed to stand for 10 minutes, and then the luminescence value of each well of the sample was read on a microplate reader using Luminescence mode. The percentage inhibition rates of the compounds at each concentration point were calculated by comparing with the value of a control group (0.1% DMSO). Then nonlinear regression analysis was performed on compound concentration logarithm-inhibition rate in GraphPad Prism 9 software to obtain the IC50 values of the compounds for inhibiting cell proliferation, as shown in Table 4. Table 4 IC50 data for inhibition on BxPC-3 cell proliferation by the compounds of the present disclosure

AUC AUC0-1(ng·h/mL) [1] [ng·h/mL]	Half-life T1/2 [1] [h]	Plasma concentration Cmax [1] [µg/mL]	IC50 [2] [nM]	IC50 [3] [nM]	SMILES
118000	7.41	23.8	9.2	24.8	CCOc1cncc(-c2cnc(C(=O)NC3(c4cc(NS(=O)(=O)C5CC5)ncn4)CC4CC4C3)s2)n1 (stereo not shown)
651817	4.87	80.937	9	16.4	CCOc1cncc(-c2ccc(NC(=O)C3(c4cc(NS(=O)(=O)C5CC5)ncn4)CC4CC4C3)c(F)c2)n1 (stereo not shown)
